Experimental data taken from patent publication US20260382728A1, “MODIFIED PROTEINS AND PROTEIN BINDERS AND DEGRADERS” (published 2026).

Protein sequences, listed by entry. Tags and fused reporters are not part of them. Residues count along the entry.
UniProt Q9Y4B6, 1058-1396 limits assumed: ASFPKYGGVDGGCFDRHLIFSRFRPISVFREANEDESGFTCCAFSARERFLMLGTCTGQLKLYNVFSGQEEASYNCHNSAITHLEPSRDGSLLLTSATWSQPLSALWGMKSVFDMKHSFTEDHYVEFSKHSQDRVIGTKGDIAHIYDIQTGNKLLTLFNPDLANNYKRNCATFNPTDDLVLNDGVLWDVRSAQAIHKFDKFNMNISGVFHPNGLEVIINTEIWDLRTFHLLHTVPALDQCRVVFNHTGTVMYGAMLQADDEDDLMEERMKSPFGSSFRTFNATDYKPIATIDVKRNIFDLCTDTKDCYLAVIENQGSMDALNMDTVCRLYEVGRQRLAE
UniProt P11802, whole entry: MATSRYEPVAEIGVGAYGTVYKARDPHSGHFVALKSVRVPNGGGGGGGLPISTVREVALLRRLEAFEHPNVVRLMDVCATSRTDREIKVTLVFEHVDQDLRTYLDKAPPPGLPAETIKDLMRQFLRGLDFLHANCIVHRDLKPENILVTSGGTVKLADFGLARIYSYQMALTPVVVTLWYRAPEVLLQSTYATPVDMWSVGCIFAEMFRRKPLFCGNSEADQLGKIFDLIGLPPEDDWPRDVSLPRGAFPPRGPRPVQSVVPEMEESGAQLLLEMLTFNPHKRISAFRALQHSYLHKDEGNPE

molecular target: T1, DCAF1 (1058-1396) (Homo sapiens, UniProt Q9Y4B6); experiment: SPR binding to DCAF1 (1058-1396), steady state Kd; details: 25 °C, steady state affinity model, Table 7

| pKd | Compound |
| --- | --- |
| < 4.00 | C#Cc1cc(N2CCC[C@@H](Nc3cc(N4CCOCC4)ncn3)C2)ncn1 |
| 4.30 to 4.60 | c1ccc(N2CCC[C@@H](Nc3cc(N4CCOCC4)ncn3)C2)nc1 |
| > 4.60 | OCc1ccc(N2CCC[C@@H](Nc3nccc(N4CCOCC4)n3)C2)nc1 |
| < 4.00 | c1ccc(N2CCC3CN(c4cc(N5CCOCC5)ncn4)CC32)cc1 (centres unmarked) |
| < 4.00 | O=C(c1ccc(Cl)c(O)c1)N1CCC2(C1)CN(c1ccccc1)C2 |
| < 4.00 | c1ccc(N2CCC3C2CCN3c2cc(N3CCOCC3)ncn2)cc1 (centres unmarked) |
| < 4.00 | c1ccc(N2CC3CCN(c4cc(N5CCOCC5)ncn4)C3C2)cc1 (centres unmarked) |
| < 4.00 | CNC(=O)c1ccnc(N2CCC3(CN(c4ccccc4)C3)C2)c1 |
| < 4.00 | CC(=O)NC1CCN(c2nccc(N3CCOCC3)n2)C1 (centres unmarked) |
| 4.30 to 4.60 | c1nc(NC2CCN(C3CCCC3)CC2)cc(N2CCOCC2)n1 |
| > 4.60 | O=C(c1ccc(Cl)c(O)c1)N1CC2(C1)CN(c1ccccc1)C2 |
| > 4.60 | c1ccc(N2CCC(CNc3cc(N4CCOCC4)ncn3)CC2)cc1 |
| 4.30 to 4.60 | CCC(=O)N1CC2(C1)CN(c1nccc(N3CCOCC3)n1)C2 |
| < 4.00 | CN(c1ccccc1)C1COC2(C1)CN(c1cc(N3CCOCC3)ncn1)C2 (centres unmarked) |
| < 4.00 | c1cc(N2CCC(CNc3cc(N4CCOCC4)ncn3)CC2)ncn1 |
| < 4.00 | CNC(=O)c1ccnc(N2C[C@@H]3C[C@H]2CN3c2ccccc2)c1 |
| < 4.00 | c1ccc(N2CC3(CCCN(c4cc(N5CCOCC5)ncn4)C3)C2)cc1 |

| pKd | Compound |
| --- | --- |
| < 4.00 | c1ccc(N2CCC3(CCC3CNc3cc(N4CCOCC4)ncn3)CC2)cc1 (centres unmarked) |
| < 4.00 | c1ccc(N2C[C@H]3C[C@@H]2CN3c2cc(N3CCOCC3)ncn2)cc1 |
| 4.00 to 4.30 | Nc1ncnc(N2CCC[C@@H](Nc3cc(N4CCOCC4)ncn3)C2)c1F |
| < 4.00 | C#Cc1ccc(N2CCC[C@@H](Nc3cc(N4CCOCC4)ncn3)C2)cc1 |
| < 4.00 | c1ccc(N2CCC3(CCN(c4cc(N5CCOCC5)ccn4)C3)C2)cc1 (centres unmarked) |
| 4.00 to 4.30 | Fc1cccc(N2CCC[C@@H](Nc3ncnc(N4CCOCC4)n3)C2)c1 |
| < 4.00 | c1ccc(NC2CC3(C2)CN(c2cc(N4CCOCC4)ncn2)C3)cc1 |
| < 4.00 | c1ccc(N2CC(CCNc3cc(N4CCOCC4)ncn3)C2)cc1 |
| < 4.00 | Cc1cc(N2CCC[C@@H](Nc3cc(N4CCOCC4)ncn3)C2)ncn1 |
| < 4.00 | Cn1ccnc1NC1CCN(c2cc(N3CCOCC3)ncn2)C1 (centres unmarked) |
| > 4.60 | FC(CNc1cc(N2CCOCC2)ncn1)=C1CN(c2ccccc2)C1 |
| 4.30 to 4.60 | OCc1scnc1N1CCC[C@@H](Nc2cc(N3CCOCC3)ncn2)C1 |
| 4.00 to 4.30 | O=C(c1ccc(Cl)c(Cl)c1)N1C[C@@H]2C[C@H]1CN2c1ccccc1 |
| < 4.00 | CNC(=O)c1ccnc(N[C@H]2CC[C@H](Nc3ccccc3)CC2)c1 |
| < 4.00 | Cc1cnc(N2CCC[C@@H](Nc3cc(N4CCOCC4)ncn3)C2)nc1 |
| < 4.00 | Fc1cccc(N2CCC[C@@H](Nc3nccc(N4CCOCC4)n3)C2)c1 |

molecular target: T1, DCAF1 (1058-1396); experiment: Covalent binding to DCAF1 by intact mass spectrometry; details: 200 μM compound, 5 μM DCAF1, 8 h, rt

| Covalent binding, Reacted | Compound |
| --- | --- |
| Y | C=CC(=O)N1CC2(C1)CN(c1cnnc(N3CCOCC3)c1)C2 |
| Y | C=CC(=O)N1CC2(CCN(c3cc(N4CCN(CC)CC4)ncn3)CC2)C1 |
| Y | C=CC(=O)N1CCN(c2cccc(N3CCOCC3)n2)CC1 |
| Y | C=CC(=O)N1CCC(Nc2cc(N3CCOCC3)ncn2)CC1 |
| Y | C=CC(=O)N1CC2(CC(Nc3cc(N4CCN(CC)CC4)ncn3)C2)C1 |
| Y | C=CC(=O)NC1CN(c2ccnc(N3CCOCC3)n2)C1 |
| N | C=CC(=O)N1CCC2(CC1)CCN(c1cccc(N3CCN(CC)CC3)n1)C2 |
| N | C=CC(=O)N1CCC2(CCN(c3cc(N4CCN(CC)CC4)c4nc[nH]c4n3)CC2)C1 |
| Y | 1-(2-(6-Morpholinopyridin-2-yl)-2,6-diazaspiro[3.4]octan-6-yl)prop-2-en-1-one |
| N | C=CC(=O)N1CCC2(CC1)CCN(c1cc(N3CCN(CC)CC3)ncn1)C2 |
| Y | C=CC(=O)NC1CN(c2nc(N3CCOCC3)ns2)C1 |
| N | C=CC(=O)N1CC[C@H](Nc2cc(N3CCN(CC)CC3)ncn2)C1 |
| Y | C=CC(=O)N1CCN(c2n[nH]c(N3CCC4(CCN(c5ccccc5)C4)C3)n2)CC1 (centres unmarked) |
| N | C=CC(=O)N1CCC2(C1)CN(c1cc(N3CCNCC3)ccn1)C2 |
| Y | C=CC(=O)N1CCC2(CCN(c3cc(N4CCN(CC)CC4)ncn3)CC2)C1 |
| Y | C=CC(=O)N1CC[C@H](Nc2cccc(N3CCN(CC)CC3)n2)C1 |
| N | C=CC(=O)N1CCC2(C1)CN(c1nccc(N3CCNCC3)n1)C2 |
| Y | C=CC(=O)N[C@H]1C[C@H](NC(=O)c2ccc(Cl)c(Cl)c2)C1 |

| Covalent binding, Reacted | Compound |
| --- | --- |
| Y | C=CC(=O)N1CC2(C1)CN(c1ccnc(N3CCNCC3)n1)C2 |
| Y | C=CC(=O)N1CC2(C1)CN(c1cc(N3CCOCC3)ccn1)C2 |
| N | 1-(6-(8-Morpholino-[1,2,4]triazolo[1,5-a]pyridin-6-yl)-2,6-diazaspiro[3.4]octan-2-yl)prop-2-en-1-one |
| N | C=CC(=O)N1CC(CNc2nccc(N3CCOCC3)n2)C1 |
| N | C=CC(=O)N[C@H]1CC[C@H](NC(=O)c2ccc(Cl)c(Cl)c2)CC1 |
| Y | C=CC(=O)N1CCC2(CC1)CN(c1cccc(N3CCN(CC)CC3)n1)C2 |
| Y | C=CC(=O)NC1CN(c2nsc(N3CCOCC3)n2)C1 |
| Y | C=CC(=O)N1CCn2nc(Nc3cccc(N4CCN(CC)CC4)n3)cc2C1 |
| Y | C=CC(=O)N1CCC2C1CCN2c1ncnc(N2CCN(CC)CC2)n1 (centres unmarked) |
| Y | C=CC(=O)N1CC2(C1)CN(c1cc(N3CCOCC3)cnn1)C2 |
| Y | C=CC(=O)N1CC2(C1)CN(c1nccc(N3CCOCC3)n1)C2 |
| Y | C=CC(=O)N1CC2(CC(Nc3cc(N4CCOCC4)ncn3)C2)C1 |
| Y | C=CC(=O)NCC1CN(c2cc(N3CCN(CC)CC3)c3occc3n2)C1 |
| N | C=CC(=O)N1CCN(c2cc(N[C@@H]3CCCN(c4cccc(F)c4)C3)ncn2)CC1 |
| Y | C=CC(=O)NC1CN(c2cccc(N3CCOCC3)n2)C1 |
| Y | C=CC(=O)N1CC2(CCN(c3cc(N4CCOCC4)ncn3)CC2)C1 |
| N | C=CC(=O)NCC1CN(c2nnc(N3CCN(CC)CC3)[nH]2)C1 |

molecular target: CDK4 (Homo sapiens, UniProt P11802); experiment: CDK4 degradation in MOLT-4 cells (immunoblotting); details: 1 μM, 8 hours

| % CDK4 Degradation (at 1 μM) | Compound |
| --- | --- |
| B (40% ≤ B < 70%) | CC(C)S(=O)(=O)c1ccccc1Nc1nc(Nc2ccc(N3CCN(C(=O)CCOCCN4CCN(c5cc(N[C@@H]6CCCN(c7cccc(F)c7)C6)ncn5)CC4)CC3)cc2)ncc1Cl |
| C (20% ≤ C < 40%) | CC(C)S(=O)(=O)c1ccccc1Nc1nc(Nc2ccc(N3CCN(C(=O)CCOCCOCCN4CCN(c5cc(N[C@@H]6CCCN(c7cccc(F)c7)C6)ncn5)CC4)CC3)cc2)ncc1Cl |
| D (D < 20%) | CC(C)S(=O)(=O)c1ccccc1Nc1nc(Nc2ccc(N3CCN(CC(=O)NCCOCCOCCN4CCN(c5cc(N[C@@H]6CCCN(c7cccc(F)c7)C6)ncn5)CC4)CC3)cc2)ncc1Cl |
| B (40% ≤ B < 70%) | CC(C)S(=O)(=O)c1ccccc1Nc1nc(Nc2ccc(N3CCN(CC(=O)NCCCCCN4CCN(c5cc(N[C@@H]6CCCN(c7cccc(F)c7)C6)ncn5)CC4)CC3)cc2)ncc1Cl |
| D (D < 20%) | CC(C)S(=O)(=O)c1ccccc1Nc1nc(Nc2ccc(N3CCN(CC(=O)NCCOCCOCCOCCN4CCN(c5cc(N[C@@H]6CCCN(c7cccc(F)c7)C6)ncn5)CC4)CC3)cc2)ncc1Cl |
| B (40% ≤ B < 70%) | CC(C)S(=O)(=O)c1ccccc1Nc1nc(Nc2ccc(N3CCN(CC(=O)NCCN4CCN(c5cc(N[C@@H]6CCCN(c7cccc(F)c7)C6)ncn5)CC4)CC3)cc2)ncc1Cl |
| C (20% ≤ C < 40%) | CC(C)S(=O)(=O)c1ccccc1Nc1nc(Nc2ccc(N3CCN(CC(=O)NCCOCCOCCOCCOCCN4CCN(c5cc(N[C@@H]6CCCN(c7cccc(F)c7)C6)ncn5)CC4)CC3)cc2)ncc1Cl |
| C (20% ≤ C < 40%) | CC(C)S(=O)(=O)c1ccccc1Nc1nc(Nc2ccc(N3CCN(C(=O)CCCN4CCN(c5cc(N[C@@H]6CCCN(c7cccc(F)c7)C6)ncn5)CC4)CC3)cc2)ncc1Cl |
| C (20% ≤ C < 40%) | CC(C)S(=O)(=O)c1ccccc1Nc1nc(Nc2ccc(N3CCN(C(=O)CCOCCOCCOCCOCCN4CCN(c5cc(N[C@@H]6CCCN(c7cccc(F)c7)C6)ncn5)CC4)CC3)cc2)ncc1Cl |
| C (20% ≤ C < 40%) | CC(C)S(=O)(=O)c1ccccc1Nc1nc(Nc2ccc(N3CCN(CC(=O)NCCCCCCCCN4CCN(c5cc(N[C@@H]6CCCN(c7cccc(F)c7)C6)ncn5)CC4)CC3)cc2)ncc1Cl |
| C (20% ≤ C < 40%) | CC(C)S(=O)(=O)c1ccccc1Nc1nc(Nc2ccc(N3CCN(C(=O)CCCCCCCN4CCN(c5cc(N[C@@H]6CCCN(c7cccc(F)c7)C6)ncn5)CC4)CC3)cc2)ncc1Cl |
| B (40% ≤ B < 70%) | CC(C)S(=O)(=O)c1ccccc1Nc1nc(Nc2ccc(N3CCN(CC(=O)NCCCCN4CCN(c5cc(N[C@@H]6CCCN(c7cccc(F)c7)C6)ncn5)CC4)CC3)cc2)ncc1Cl |

same assay, conditions: 10 μM, 8 hours

| % CDK4 degradation (at 10 μM) | Compound |
| --- | --- |
| A (A: ≥ 70%) | CC(C)S(=O)(=O)c1ccccc1Nc1nc(Nc2ccc(N3CCN(C(=O)CCOCCN4CCN(c5cc(N[C@@H]6CCCN(c7cccc(F)c7)C6)ncn5)CC4)CC3)cc2)ncc1Cl |
| B (40% ≤ B < 70%) | CC(C)S(=O)(=O)c1ccccc1Nc1nc(Nc2ccc(N3CCN(C(=O)CCOCCOCCN4CCN(c5cc(N[C@@H]6CCCN(c7cccc(F)c7)C6)ncn5)CC4)CC3)cc2)ncc1Cl |
| C (20% ≤ C < 40%) | CC(C)S(=O)(=O)c1ccccc1Nc1nc(Nc2ccc(N3CCN(CC(=O)NCCOCCOCCN4CCN(c5cc(N[C@@H]6CCCN(c7cccc(F)c7)C6)ncn5)CC4)CC3)cc2)ncc1Cl |
| A (A: ≥ 70%) | CC(C)S(=O)(=O)c1ccccc1Nc1nc(Nc2ccc(N3CCN(CC(=O)NCCCCCN4CCN(c5cc(N[C@@H]6CCCN(c7cccc(F)c7)C6)ncn5)CC4)CC3)cc2)ncc1Cl |
| A (A: ≥ 70%) | CC(C)S(=O)(=O)c1ccccc1Nc1nc(Nc2ccc(N3CCN(CC(=O)NCCOCCOCCOCCN4CCN(c5cc(N[C@@H]6CCCN(c7cccc(F)c7)C6)ncn5)CC4)CC3)cc2)ncc1Cl |
| A (A: ≥ 70%) | CC(C)S(=O)(=O)c1ccccc1Nc1nc(Nc2ccc(N3CCN(CC(=O)NCCN4CCN(c5cc(N[C@@H]6CCCN(c7cccc(F)c7)C6)ncn5)CC4)CC3)cc2)ncc1Cl |
| A (A: ≥ 70%) | CC(C)S(=O)(=O)c1ccccc1Nc1nc(Nc2ccc(N3CCN(CC(=O)NCCOCCOCCOCCOCCN4CCN(c5cc(N[C@@H]6CCCN(c7cccc(F)c7)C6)ncn5)CC4)CC3)cc2)ncc1Cl |
| C (20% ≤ C < 40%) | CC(C)S(=O)(=O)c1ccccc1Nc1nc(Nc2ccc(N3CCN(C(=O)CCCN4CCN(c5cc(N[C@@H]6CCCN(c7cccc(F)c7)C6)ncn5)CC4)CC3)cc2)ncc1Cl |
| B (40% ≤ B < 70%) | CC(C)S(=O)(=O)c1ccccc1Nc1nc(Nc2ccc(N3CCN(C(=O)CCOCCOCCOCCOCCN4CCN(c5cc(N[C@@H]6CCCN(c7cccc(F)c7)C6)ncn5)CC4)CC3)cc2)ncc1Cl |
| A (A: ≥ 70%) | CC(C)S(=O)(=O)c1ccccc1Nc1nc(Nc2ccc(N3CCN(CC(=O)NCCCCCCCCN4CCN(c5cc(N[C@@H]6CCCN(c7cccc(F)c7)C6)ncn5)CC4)CC3)cc2)ncc1Cl |
| B (40% ≤ B < 70%) | CC(C)S(=O)(=O)c1ccccc1Nc1nc(Nc2ccc(N3CCN(C(=O)CCCCCCCN4CCN(c5cc(N[C@@H]6CCCN(c7cccc(F)c7)C6)ncn5)CC4)CC3)cc2)ncc1Cl |
| B (40% ≤ B < 70%) | CC(C)S(=O)(=O)c1ccccc1Nc1nc(Nc2ccc(N3CCN(CC(=O)NCCCCN4CCN(c5cc(N[C@@H]6CCCN(c7cccc(F)c7)C6)ncn5)CC4)CC3)cc2)ncc1Cl |

pKd: −log10 of the molar value.
